From ChEMBL document CHEMBL1649546, “Extended-spectrum properties of CMY-30, a Val211Gly mutant of CMY-2 cephalosporinase” (Antimicrob Agents Chemother, 2009)

Key:
[1] = test system: Escherichia coli; test: Activity of Escherichia coli MC4100 Beta-Lactamase CMY-2
Method in brief: (§1)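 CMY-2 purified from E. coli MC4100 carrying high-copy plasmid pB-cmy2. Cells in 20 mM Tris pH 7.4 sonicated, then Q- and S-Sepharose ion exchange, >95% pure by SDS-PAGE. Kinetic constants are means of four independent measurements. For some β-lactams Km was determined as Ki with cephalothin as reporter substrate.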

[2] = test system: Escherichia coli; test: Ratio of Kcat to Km for Escherichia coli MC4100 Beta-Lactamase CMY-30 harboring Val211?Gly211 mutation
Method in brief: (§2)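 Enzyme source was E. coli MC4100 carrying high-copy plasmids pB-cmy30 or pB-cmy2. Enzyme was released by sonication in 20 mM Tris, pH 7.4, then purified by Q- and S-Sepharose ion exchange to >95% purity by SDS-PAGE. Values are means of four independent measurements. For some β-lactams, Km was obtained as Ki using cephalothin as reporter substrate.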

[3] = test system: Escherichia coli; test: Activity of Escherichia coli MC4100 Beta-Lactamase CMY-30 harboring Val211?Gly211 mutation; method in brief: as §2
[4] = test system: Escherichia coli; test: Ratio of Kcat to Km for Escherichia coli MC4100 Beta-Lactamase CMY-2; method in brief: as §1

Question: What does the source list for O=C(Cc1cccs1)N[C@@H]1C(=O)N2C(C(=O)O)=C(/C=C/c3ccc([N+](=O)[O-])cc3[N+](=O)[O-])CS[C@H]12?
Answer: Km [1]: 21 µM; kcat [1]: 867 s⁻¹; kcat/Km [2]: 1.7e+07 M⁻¹ s⁻¹; kcat [3]: 333 s⁻¹; kcat/Km [4]: 4.1e+07 M⁻¹ s⁻¹
